Experimental data as given in ChEMBL document CHEMBL2010713, “Structure-activity relationship of a new series of reversible dual monoacylglycerol lipase/fatty acid amide hydrolase inhibitors” (J Med Chem, 2012).

Target: Monoglyceride lipase (Rattus norvegicus) (UniProt Q8R431)
Assay: Inhibition of rat brain membrane MAGL assessed as [3H]-2-oleoylglycerol hydrolysis after 10 mins by liquid scintillation spectroscopy

For `CCCCC/C=C\C/C=C\C/C=C\C/C=C\CCCC(=O)OCC1CO1` (stereo unspecified), the IC50 was 4.5 µM.
